In US8273713B2, “Methods of treating obesity using PYY[3-36]” (Amylin Pharmaceuticals, LLC, priority 2000, dated 2012):

Experiments:
Format in all cases: in vivo
food intake [1] = assay: Long term food intake study in fa/fa rat; details: long term studies, data not presented
gallbladder emptying = assay: Gallbladder emptying in mice (gallbladder weight)
Experimental: Mice were housed in a 12:12 hour light:dark cycle room with free access to water and mouse chow until the start of the experiment. At t=0, mice were given a subcutaneous injection of 1, 10, 100, or 1000 μg/kg PYY[3-36], 1 or 10 μg/kg CCK-8, both or saline (treatment and n/group as indicated in FIG. 4). Thirty minutes later, animals were anesthetized, and their intact gallbladders removed and weighed.
Data are expressed as organ weight in mg. Activity was defined as change from the mean of the control group. Statistical significance was defined as p<0.05 by ANOVA and/or Dunnett's test.

[2] = Body weight in several obese rodent models; details: peripheral administration
gastric acid secretion = assay: Pentagastrin-stimulated gastric acid secretion in rats with gastric fistulae
Experimental: (§1) Male Harlan Sprague Dawley rats were housed in a 12:12 hour light:dark cycle. All experiments were performed during the light cycle. Animals were fasted for approximately 20 hours before experimentation but were given free access to water until the start of the experiment.
Rats (age 11-16 weeks, body mass 291-365 g) were surgically fitted with gastric fistulae (Kato, Martinez et al. Peptides 16: 1257-1262, 1995). Overnight fasted rats were weighed and their gastric fistulae were uncapped and attached to flexible Tygon tubing (⅜× 1/16) into which was fitted a piece of PE205 tubing that would extend up into the stomach. Saline was injected through the narrower PE205 tubing and the effluent collected from the Tygon tubing. To ensure proper flow through the fistulae and an empty stomach, the stomach was flushed several times with ˜5 mL of room temperature saline solution until flow was easy and the effluent was clean. Gastric acid secretion was measured at 10 min intervals by injecting 5 mL of saline followed by 3 mL of air and collecting the effluent. […]
After a baseline sample was collected, and the recovered volume recorded, the animal was given a subcutaneous injection of 125 μg/kg pentagastrin to stimulate gastric secretion. […] Data are expressed as μmol of acid secreted per 10 minute sampling interval (mean±SEM n=4/group).

[3] = tested on: exocrine pancreatic secretion (amylase); assay: CCK-8-stimulated exocrine pancreatic secretion (amylase) in anesthetized rats
Experimental: as §1
Rats were anesthetized with 5% halothane, maintained with 2% halothane during surgery and with 1% halothane thereafter. Tracheotomy and cannulation of the right femoral artery were performed and body temperature was controlled with a thermoregulator that switched a heated operating table. The femoral arterial line, used for blood sampling, was perfused with heparinized saline (2 U/ml) and connected to a pressure transducer for blood pressure recording. Through a midline incision, two polyethylene cannulae were inserted into the common bile-pancreatic duct at a point about 0.5 cm above where the duct enters the pancreas. The first cannula was inserted up toward the liver to collect bile. The other end of this cannula was placed into the duodenum through a small incision in the duodenum. […]
Pancreatic juice was collected over 15 min intervals between t=−15 to +60 min. The volume of pancreatic juice (measured by weight) and activities of amylase were determined for each 15-minute aliquot (Taniguchi, Yazaki et al. Eur J Pharmacol 312: 227-33, 1996). […]

HbA1c = assay: Glycemic control (HbA1c) in obese diabetic (ZDF) rats, 28-day infusion
Experimental: (§2) Diabetic fatty Zucker rats (ZDF) (7 weeks of age) were housed in a 12:12 hour light:dark cycle room and given ad libitum access to high fat rodent chow and water. After 1 week of acclimatization, blood samples were drawn, and animals were sorted by starting HbA1c to provide a similar range in each treatment group.
(§3) Animals were implanted with osmotic pumps which delivered the doses indicated in FIG. 8 of PYY[3-36] or saline continuously to the periphery for 28 days. HbA1c was measured at weekly intervals. HbA1c levels (%) were plotted against time (Brown, Henke et al. Diabetes 48: 1415-24, 1999).

[4] = Body weight gain in fattened C57Bl/6 (DIO) mice, continuous infusion
Experimental: (§4) Male C57Bl/6 mice (4 weeks-old at start of study) were fed high fat (HF; 58% of dietary kcal as fat) or low fat (LF; 11% of dietary kcal as fat) chow. (30, 100, 300, or 1000 μg/kg/day) continuously for 4 weeks. Body weight and food intake were measured weekly (Surwit, Feinglos et al. Metabolism—Clinical and Experimental 44: 645-651, 1995).
Effects of the test compound are expressed as the mean±sd of change in grams from starting weight of at least 14 mice per treatment group ((p<0.05 ANOVA, Dunnett's test (Prism v2.01, GraphPad Software Inc., San Diego, Calif.).

gastric emptying = assay: Gastric emptying in HSD rats (3H-3-O-methyl-glucose gavage); details: doses greater or equal to 10 μg/kg intraperitoneal; measured at 40 minutes
Experimental: Male HSD rats, 180-215 g, were housed with a 12:12 hour light:dark cycle and fasted for 20 hrs (overnight). At time=0 min, test peptide (PYY[3-36], PYY, Ac-PYY[22-36], NPY, NPY[3-36], or PP) or saline vehicle was injected (intraperitoneal) into conscious rats (n=6/group). At t=1 min, a solution of 1 mL sterile water containing 5 μCi of ^3H-3-O-methyl-glucose was gavaged by oropharyngeal tube to conscious rats. Blood samples (10 μl) were collected 40 min after gavage and assayed for counts per minute (CPM) in plasma. To eliminate pain during tail vein sampling, 2% Lidocaine (0.1 ml) was injected 3-4 cm from the end of the tail (Gedulin, Jodka et al. Gastroenterology 108: […], 1995). Effects of the test compound were expressed as percent change relative to control, which was calculated as -100*(1-(mean value test rats/mean value controls)). Relative activity was defined as significant if p<0.05 as determined by ANOVA. Where a significant difference existed, test means were compared to the control mean using Dunnett's test (Prism v2.01, GraphPad Software Inc., San Diego, Calif.).

food intake [5] = assay: Food intake in ZDF rats during PYY[3-36] infusion; details: ZDF rat, peripheral administration; data not presented
Experimental: as §2, §3

food intake [6] = assay: Food intake in overnight-fasted NIH/SW mice; details: 10, 100 and 500 μg/kg intraperitoneal; measured over 60 min; overnight-fasted female NIH/SW mice
Experimental: Female NIH/Swiss mice (8-12 weeks old) were group housed with a 12:12 hour light:dark cycle with lights on at 0600. Water and a standard pelleted mouse chow diet were available ad libitum, except as noted. Animals were fasted and housed individually starting at approximately 1500 hrs, 1 day prior to experiment. The morning of the experiment (approx. 0630 hrs), all animals were weighed and divided into experimental groups so as to give the most similar weight distribution between groups. In a typical study, n=10 for the control group and at least 5 for each treatment group. At time=0 min, all animals were given an intraperitoneal injection of vehicle or compound in a volume of 5 ml/kg and immediately given a pre-weighed amount (10-15 g) of the standard chow. Increasing dosages of PYY[3-36], or PYY (0.1 μg/kg to 500 μg/kg and NPY (100 and 500 μg/kg), and single high doses of NPY[3-36] (100 μg/kg), N-terminal acetylated Ac-PYY[22-36] (200 μg/kg) and PP (500 μg/kg) were provided, as indicated on FIG. 1. Food was removed and weighed at 1 hr to determine the amount of food consumed (Morley, Flood et al. Am J Physiol 267: […]-[…], 1994). Food intake was calculated by subtracting the weight of the food remaining after one hour from the weight of the food provided initially at time=0. The effects of treatment on food intake are expressed as % change relative to control. […]

food intake [7] = assay: Long term food intake study in ob/ob mouse; details: long term studies, data not presented
[8] = Caloric efficiency in fattened C57Bl/6 (DIO) mice, continuous infusion
Experimental: as §4, with “Feinglos,” for “Feinglos”, “al” for “al.”
Effects of the test compound are expressed as change in body weight (g) from the starting weight per kcal consumed. Kcal consumed was computed by multiplying the weight of food consumed (g) by the caloric density (kcal/g) specified by the manufacturer.
Activity was defined as the change of the mean±sd of n=at least 14 mice/group. Significance was defined as p<0.05 in an ANOVA or Dunnett's test.

[9] = 1000 μg/kg/day, all time points
[10] = continuous peripheral infusion 30-1000 μg/kg/day, 4 weeks, DIO mice

Substance: PYY[3-36]
- effect on food intake (food intake [1]): reduced food intake
- ED50 for inhibition of gallbladder emptying (gallbladder emptying; acute peripheral injection, mice): ≈ 31 μg/kg
- reversal of inhibition of gallbladder emptying by CCK-8 (gallbladder emptying; co-administered CCK-8, even at the highest doses of PYY[3-36] tested): could be overridden by CCK-8
- effect on gallbladder emptying (gallbladder emptying; doses greater or equal to 10 μg/kg, acute peripheral injection, 30 min): prevented gallbladder emptying
- effect on body weight [2]: dose-dependent decrease in body weight and/or rate of weight gain
- effect on pentagastrin-stimulated gastric acid secretion (gastric acid secretion; 100 μg/kg, acute peripheral (intraperitoneal) injection): inhibited pentagastrin-stimulated gastric acid secretion
- ED50 for inhibition of pentagastrin-stimulated gastric acid secretion (gastric acid secretion; acute peripheral injection, rats): ≈ 20 μg/kg
- effect on CCK-8-stimulated pancreatic secretion (amylase activity in pancreatic juice) ([3]; 30 μg/kg subcutaneous): blocked CCK-8-stimulated pancreatic secretion
- effect on basal amylase activity ([3]; 300 μg/kg, in the absence of CCK-8, versus saline-injected controls): no effect on basal amylase activity
- significance of improvement in glycemic control (HbA1c; all doses, at 28 days): significant
- effect on long term blood glucose control (HbA1c) (HbA1c; continuous peripheral infusion, 28 days, ZDF rats): dose-dependent improvement in long term blood glucose control
- significance of effect on body weight gain ([4]; 300 μg/kg/day, first 3 weeks): significant
- significance of effect on body weight gain [4, 9]: significant
- effect on body weight gain [4, 10]: dose-related decrease in body weight gain
- effect on gastric emptying (gastric emptying): significantly and dose-dependently reduced gastric emptying
- effect on food intake (food intake [5]): reduced
- effect on food intake (food intake [6]): approximately equal efficacy
- effect on food intake (food intake [7]): reduced food intake
- significance of effect on caloric efficiency ([8]; 300 μg/kg/day, some time points): significant
- significance of effect on caloric efficiency [8, 9]: significant
- effect on caloric efficiency (body weight gained/kcal consumed) [8, 10]: dose-related decrease in caloric efficiency
